The source of these data is patent US4235803A, “1,6-Dimesyl-3,4-dimethyl-D-mannitol and a process for the preparation thereof” (priority 1978, dated 1980).

For one data set, the system named is Yoshida sc. sarcoma. Put plainly: Comparison of the ED50 values on Yoshida sc. sarcoma of rats (transplanted solid tumor). The data set is classed as in vivo, rat. To be noted: for Relative activity: calculated by comparing the ED50 values. From the text:
(§1) The following tumor strains were applied:
Rat: Yoshida sc. sarcoma
(§2) The animals received water ad libitum.

Data set [1] deals with peripheral blood count (granulocytes, lymphocytes). The note with it: rat, in vivo.
The test system of data set [2] is transplantable mouse and rat tumors. The experiment in a line: Cytostatic effect / growth inhibition on transplantable mouse and rat tumors (overall statements). To be noted: solid tumors; in words. The procedure:
Our tests were performed on various transplantable mouse and rat tumors. The following tumor strains were applied:
The tests were always performed on animals of both sexes. At the beginning of the tests the average body weight of mice was 20 to 22 g, whereas that of rats 150 to 180 g. The animals were kept in plastic cages and fed with a standard laboratory animal feed (LATI, Godollo, Hungary). The animals received water ad libitum.
Solid tumors were transplanted by a subcutaneous implantation of tumor chips. Ascites type tumors were transplanted with 10^7 cells received from the ascites, whereas leukaemia type tumors were transplanted with spleen suspension. The treatment of the animals was started 24 hours after transplantation, with the only exception of Harding-Passey melanoma, when treatment was started on the 4th day after transplantation.

A further data set deals with P-388 leukaemia. The experiment in a line: Tumor inhibiting effect on leukaemia type tumors: P-388. It is filed as in vivo, mouse.
From the text: as §1, §2
Healing=tumor-free survival of 90 days after transplantation

`CS(=O)(=O)OC[C@@H](O)[C@@H](O)[C@H](O)[C@H](O)COS(C)(=O)=O` [1,6-Dimesyl-D-mannitol (Mannogranol), 1,6-dimesyl-D-mannitol]: the Relative activity in the data set with Yoshida sc. sarcoma (i.p.) is 0.04; with Yoshida sc. sarcoma (p.o.) it was 0.116. Besides, in data set [1], the “effect on haematopoiesis (formation of myeloid leukocytes)” value was “rather strong and selective action on the formation of myeloid leukocytes”.
For `CO[C@@H]([C@H](OC)[C@H](O)COS(C)(=O)=O)[C@H](O)COS(C)(=O)=O` [compound of formula (I), 1,6-dimesyl-3,4-dimethyl-D-mannitol], in data set [2], the “therapeutical indices (LD50/ED50)” value was “very favourable therapeutical indices”. In addition, the Relative activity in the data set with Yoshida sc. sarcoma (i.p.) is 1. For the same molecule, the “relative activity (comparison of ED50 values with reference substances)” value in the data set on Yoshida sc. sarcoma (in words) is “high superiority”. The Relative activity in the data set on Yoshida sc. sarcoma (p.o.) is given as 1. Also, in data set [1], the haematopoietic activity entry is listed as “weak” and the “selectivity of the haematopoietic effect” value was “not selective”. Also, in the data set on P-388 leukaemia (100 mg/kg, 4 × i.p.), the “Healing (tumor-free survival of 90 days after transplantation)” value was 0/8 and the “Prol. of life span” value was 82%. The antileukaemic effect result in the data set with P-388 leukaemia (in words) was “weak antileukaemic effect”.
